Experimental findings from ChEMBL document CHEMBL5252594 are described below.

Series [1] is described as follows: Toxicity against pupae stage Aedes aegypti Rockefeller.
Series [2] can be described thus: Toxicity against adult stage Aedes aegypti Rockefeller. The settings on record: in vivo.

Structures are written as SMILES.

As to `O=C(CC[N+](=O)[O-])OC[C@H]1O[C@@H](OC(=O)CC[N+](=O)[O-])[C@H](OC(=O)CC[N+](=O)[O-])[C@@H](OC(=O)CC[N+](=O)[O-])[C@@H]1O`, the Activity entry in series [1] and in series [2] was “Non-Toxic” throughout.
Take `O=C(CC[N+](=O)[O-])OC[C@H]1O[C@@H](OC(=O)CC[N+](=O)[O-])[C@H](OC(=O)CC[N+](=O)[O-])[C@@H](O)[C@@H]1O`: the Activity result in series [1] and in series [2] was “Non-Toxic” throughout.
